# Experimental data from the supplement of paper PMC11018630.
# Counter-ions that a name gives are not always drawn. ± gives the standard deviation of the averaged measurements. Shown are results outside the selection of lowest values, which stands elsewhere.
# Tested on: RDEB dermal fibroblasts EB71
# Experiment: day of extracellular matrix detachment from plate (days); higher = delayed detachment (less fibrotic matrix)
# Conditions: compound concentration: 10 uM
row,SMILES,day of extracellular matrix detachment from plate
1,CC[C@H](C)[C@H](NC(=O)[C@H](CCC(=O)O)NC(=O)C(CCC(=O)O)NC(=O)[C@H](Cc1ccccc1)NC(=O)C(CC(=O)O)NC(=O)CNC(=O)C(CC(N)=O)NC(=O)CNC(=O)CNC(=O)CNC(=O)CNC(=O)[C@@H]1CCCN1C(=O)[C@H](CCCNC(=N)N)NC(=O)[C@@H]1CCCN1C(=O)[C@@H](N)Cc1ccccc1)C(=O)N1CCC[C@H]1C(=O)N[C@@H](CCC(=O)O)C(=O)N[C@@H](CCC(=O)O)C(=O)N[C@@H](Cc1ccc(O)cc1)C(=O)N[C@@H](CC(C)C)C(=O)O (stereo partly specified) [Bivalirudin Trifluoroacetate],19 ± 3
